Data: US20120040951A1, “HETEROARYL COMPOUNDS USEFUL AS RAF KINASE INHIBITORS” (priority 2008, published 2012)
pEC50, pIC50: −log10 of the molar value.

By UniProt entry, the sequences of proteins in these tests, tags left out.
UniProt P15056, whole entry V600E: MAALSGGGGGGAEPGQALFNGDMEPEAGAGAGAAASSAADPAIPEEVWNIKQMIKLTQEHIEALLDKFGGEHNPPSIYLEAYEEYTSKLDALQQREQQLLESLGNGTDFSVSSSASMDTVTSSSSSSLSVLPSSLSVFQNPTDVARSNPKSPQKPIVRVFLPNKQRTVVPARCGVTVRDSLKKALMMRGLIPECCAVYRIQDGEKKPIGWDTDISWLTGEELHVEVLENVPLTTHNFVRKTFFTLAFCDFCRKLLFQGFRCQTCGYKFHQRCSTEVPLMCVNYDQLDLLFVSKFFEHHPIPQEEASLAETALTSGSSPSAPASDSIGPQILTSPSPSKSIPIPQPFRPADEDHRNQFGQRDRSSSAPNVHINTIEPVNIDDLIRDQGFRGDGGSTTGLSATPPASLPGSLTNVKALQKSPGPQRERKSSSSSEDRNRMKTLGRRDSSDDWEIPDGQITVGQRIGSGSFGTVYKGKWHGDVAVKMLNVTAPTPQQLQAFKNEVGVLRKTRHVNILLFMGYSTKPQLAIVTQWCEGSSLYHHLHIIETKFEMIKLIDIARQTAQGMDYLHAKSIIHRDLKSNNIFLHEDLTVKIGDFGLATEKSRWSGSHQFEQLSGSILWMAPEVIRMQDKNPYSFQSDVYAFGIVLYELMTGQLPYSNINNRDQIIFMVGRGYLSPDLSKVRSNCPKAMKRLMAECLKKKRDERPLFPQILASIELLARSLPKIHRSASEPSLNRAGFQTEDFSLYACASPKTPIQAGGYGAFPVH

Columns and labels:
[1] = target: V599E Raf (Homo sapiens, UniProt P15056, V600E); test: Biochemical FRET assay, mutant Raf (phosphorylation of MEK); settings: read-out: Raf (mut) inhibition, 0.125 nM V599E Raf, 100 nM biotin-MEK, 25 μM ATP
Protocol: (1) Biochemical FRET Assay […]
Inhibitors were diluted 4-fold in 100% DMSO and added to a final concentration of 10 μM to 40 μM to a solution containing 100 nM biotin-MEK, 0.125 nM V599E Raf in 50 mM HEPES, pH 7.4, 60 mM NaCl, 3 mM MgCl2, 2 mM DTT, 0.25 mM MnCl2, 0.01% BSA, and 0.01% Tween-20 and incubated for 20 minutes at room temperature. The kinase reaction was started by the addition of 25 μM ATP to a final volume of 45 μl and allowed to progress for 60 minutes. The reaction was stopped with 15 mM EDTA and 20 nM Streptavidin-APC, 2.5 nM Polyclonal anti p-MEK1/2 (Ser217/221), 2.5 nM Eu-labeled anti-rabbit IgG were added in Lance detection buffer and 5% Superblock in PBS for a final volume of 100 μl. The detection reaction was incubated for 90 minutes at room temperature and then read on an Analyst plate reader using standard TR-FRET (time resolved fluorescence resonance energy transfer) settings for Eu and APC.
Compounds having an activity designated as “A” provided an IC50≦100 nM; compounds having an activity designated as “B” provided an IC50 of 100-1000 nM; and compounds having an activity designated as “C” provided an IC50 of 1000-10,000 nM.

[2] = test system: phospho-ERK in melanoma derived WM-266-4 cells; test: Mechanistic cellular assay for Raf kinase activity (phospho-ERK, Bio-Plex); settings: read-out: pERK EC50, treated 1-2 hr at 37° C., serum free medium
From the text: (2) Mechanistic Cellular Assay for Raf Kinase Activity
The following method was utilized for quantifying the amount of phospho-ERK in melanoma derived WM-266-4 cells (one allele each of wild type BRaf and mutant BRaf (V600D) as an indicator of Raf kinase activity in cells treated with various kinase inhibitors.
(1) Detached adhered WM-266-4 cells from flask using 0.25% Trypsin. Resuspended cells in growth media (90% RPMI 1640, 10% FBS) and determine cell density.
(2) Seeded cells @ 10,000 cells/well in 96-well (flat bottom) tissue culture plates (36,000 cells/cm^2). Added growth media to a final volume of 200 uL/well and incubated overnight at 37° C.
(1) Prepared compound dilutions (1000× in DMSO) as follows. […]
(2) Prepared phospho-ERK1,2 Bioplex beads by diluting 1:50 with Bioplex Wash Buffer (mixing 49 μL Wash Buffer with 1 μL of phospho-ERK1,2 Bioplex beads for each sample to be analyzed). […]
(1) Prepared detection antibody (phospho-ERK1,2 Ab) by diluting 1:25 with Detection Antibody Dilution Buffer Buffer (mixing 24 μL Detection Antibody Dilution Buffer with 1 μL of phospho-ERK1,2 Ab for each sample to be analyzed). […]
(3) Prepared streptavidin-PE by diluting 1:100 with Wash Buffer (mixing 49.5 μL Wash Buffer with 0.5 μL of 100× streptavidin-PE for each sample to be analyzed). […]

CC(NC(=O)c1cnc2ncccn12)c1cnc(Nc2ccc(C(F)(F)F)cc2)s1 (centres unmarked) [Example 310]
pIC50 [1]: > 7.00
pEC50 [2]: 6.00 to 7.00
